## Ab-91 heavy chain CDR variants: yeast mating affinities

The measurements come from Engelhart et al. 2022 (doi:10.1038/s41597-022-01779-4) through the FLAb antibody collection.

Binding partner: SARS-CoV-2 spike HR2 peptide, sequence PDVDLGDISGINAS.

Parent: Ab-91, a human scFv built as VL, three GGGGS repeats, VH. Only the CDRs of the heavy chain vary.
VL: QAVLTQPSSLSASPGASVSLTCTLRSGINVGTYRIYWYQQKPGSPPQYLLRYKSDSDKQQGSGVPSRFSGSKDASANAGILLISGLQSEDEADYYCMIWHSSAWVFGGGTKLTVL
VH: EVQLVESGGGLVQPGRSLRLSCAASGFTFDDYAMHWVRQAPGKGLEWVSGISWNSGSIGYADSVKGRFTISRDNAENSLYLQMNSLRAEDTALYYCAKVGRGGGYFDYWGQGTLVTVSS

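Phage display of a naive human antibody library on the peptide gave the parent. Library AAYL51 holds single substitutions and randomly drawn double and triple substitutions in the CDRs. Affinity was read by AlphaSeq, a pooled yeast mating assay with surface-displayed partners. Pairs that bind mate more often; barcode pairs of the diploids are counted by sequencing. A regression on co-assayed BCL2-family reference pairs converts the normalised counts of each replicate to an apparent Kd. There are three technical replicates.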

Each variant is given by its three heavy chain CDRs, as the data file delimits them; those of the parent are GFTFDDYAMH, GISWNSGSIGYADSVK, VGRGGGYFDY.
The read-out is the apparent dissociation constant on a log10 scale (nM): the lower, the stronger.
Where no diploid with the target was found in that replicate, the entry reads "nd": below detection, most likely a poor binder, though not proof of it.
Empty control strains, which show no peptide, gave a signal in 21% of pairings with library AAYL51; the median was 4.54 and 95% of these signals were weaker than 3.26. No background was subtracted. The control count says in how many pairings with the empty strains this scFv gave a signal, with their mean in brackets.

| CDR-H1 | CDR-H2 | CDR-H3 | replicates, log10 nM | control signals |
|---|---|---|---|---|
| GCTFDDYQMH | GIMWNSGSIGYADSVK | VGRGGGYFDY | nd 3.67 nd | 1/9 (4.20) |
| GFTFDDYAMH | GISWASWSIGYADSVK | VGRGGGYQDY | nd nd nd | 2/9 (4.68) |
| LFTFDDKAMH | GISWNSGSIGYADSVK | VNRGGGYFDY | nd 4.68 nd | 1/9 (4.18) |
| GFTIDDYAYH | GISWNSGSIGYADSVK | VGRGGGYFDC | nd nd 4.26 | 2/9 (5.34) |
| GFTFDMYAMH | GISWNSGSIGDADSVK | VGRGLGYFDY | nd nd nd | 0/9 |
| GDTFDDYAMH | GISWNSGSIGYPDSVK | VGRGQGYFDY | nd nd nd | 0/9 |
| GFTFDDYAMH | YISWNSGSIIYAKSVK | VGRGGGYFDY | nd nd nd | 1/9 (4.47) |
| GFTFDDYTKH | GISWNSGSGGYADSVK | VGRGGGYFDY | nd nd nd | 1/9 (2.33) |
| GFTFDDYAMH | GKSWNSGSIGYADSEA | VGRGGGYFDY | nd nd nd | 3/9 (4.10) |
| GFTFDDMAMH | GFNWNSGSIGYADSVK | VGRGGGYFDY | nd nd nd | 1/9 (3.29) |
| GFTFDDYAMH | GISWNSGSIGQADSTK | VGRGGGYSDY | 3.51 4.74 3.31 | 3/9 (5.06) |
| NFTFDDYAMH | GISWNSGSSGYADSVK | VGRGEGYFDY | nd nd nd | 0/9 |
| GFTFDDYAMH | GISWNSVSILYAMSVK | VGRGGGYFDY | nd nd nd | 0/9 |
| GFTFTDYAMH | GESWNSGSIGYADSVK | VGRDGGYFDY | 4.33 nd nd | 0/9 |
| GFTFGDYAMH | GISWNSGSIGVADSVK | VGRGGGYNDY | nd 4.46 nd | 1/9 (3.87) |
| GFTFWDYAMH | GIAWNSGSTGYADSVK | VGRGGGYFDY | 1.62 1.72 1.32 | 3/9 (4.97) |
| GFTFDDYAMH | GISWNSGAIGYADSVK | VGRGGGYFDG | 2.27 2.19 1.69 | 3/9 (4.54) |
| GFTFDVYAMH | GISWNSGSIYYADWVK | VGRGGGYFDY | nd 5.56 4.25 | 3/9 (4.07) |
| GFTFDDYAMH | GISMNSGSIGYADSRK | VGRGGGEFDY | nd nd nd | 0/9 |
| GFTFDIYAAH | GISWNSHSIGYADSVK | VGRGGGYFDY | nd nd nd | 0/9 |
| GFTFDDYAMH | GISWNSGSIGYADSVK | VGRGCGYFDY | nd 4.33 4.83 | 1/9 (4.77) |
| GFTFDDYAML | WISWNSGSIGYADSVK | VGRIGGYFDY | 5.26 nd nd | 3/9 (4.27) |
| GFTFDDYAMH | GISWNSESIGYADSVK | VGSGGGYFLY | 2.12 2.30 1.94 | 3/9 (5.37) |
| GFTFDDYAMH | GISWNSGSIGYTDSVK | VGRGDGDFDY | nd 4.96 nd | 1/9 (5.84) |
| GFTFDDYCMH | DISWNSGSIYYADSVK | VGRGGGYFDY | 4.67 5.00 5.18 | 3/9 (4.71) |
| GFTFDDYAMH | GISWNSGSIGYAISSK | VGRGGGYDDY | nd nd nd | 0/9 |
| GFTFDDYAMH | GISWNSGSYGYADSVK | KGREGGYFDY | nd nd nd | 0/9 |
| GFNFDDYAMH | GISWNSGSIGYHDSVK | VGRGGGRFDY | nd nd nd | 0/9 |
| GFTFDDYAMH | GGSWNSGSIAYADSVK | VGRGGGYFDY | nd nd nd | 0/9 |
| GFTFDDYAMH | GISWNSISIGYADSVK | VGRGGGYFQY | 1.16 1.23 0.93 | 2/9 (3.97) |
| GFTFDDYAMH | GESWNSGSCNYADSVK | VGRGGGYFDY | nd 6.15 nd | 1/9 (4.04) |
| GFTFDDYAMH | GISWNSGSIGYADEVK | VGRGGGEFDY | nd nd nd | 2/9 (3.34) |
| GFTFDDYARH | GRSWNSASIGYADSVK | VGRGGGYFDY | nd nd nd | 0/9 |
| CFTFDDYAMH | GISWNSESIGYADSVK | VGRGGGYFDY | 2.69 2.33 2.62 | 0/9 |
| GFTFDDYAMH | GISRNSGSIGYASSVK | VGRGGGYFDY | nd nd nd | 1/9 (2.65) |
| GFTFDDYAMH | GISWNSGSITYADSVK | VGRGGGYFVY | nd nd nd | 3/9 (3.78) |
| GFTFADYAMH | GISGNSGSIGYADSVK | VGRGGGYFDF | 1.19 1.12 0.55 | 8/9 (5.39) |
| GFTFDDYAMH | GISWNSGSRGYADSVH | VGRMGGYFDY | 3.82 4.37 nd | 4/9 (4.68) |
| GFIFDDYAMH | GISWNSGSFRYADSVK | VGRGGGYFDY | nd nd nd | 0/9 |
| GFTFDMYAMH | AISWNSGEIGYADSVK | VGRGGGYFDY | 4.22 4.00 3.94 | 6/9 (4.46) |
| GFTFDDPAMH | GINWFSGSIGYADSVK | VGRGGGYFDY | 3.74 nd nd | 0/9 |
| GFFFDDYAMH | GMSWFSGSIGYADSVK | VGRGGGYFDY | 4.14 6.04 5.14 | 5/9 (5.15) |
| GFTFDDYAMH | GISWNSGSIGYADSVK | TGRGGGYFDY | nd nd nd | 0/9 |
| GFTFCDYAMH | GISWNSGSIGYADHVK | VGRGYGYFDY | 4.50 6.14 4.96 | 4/9 (4.25) |
| GDTFDDYAMH | GISWNSGSITYADSVK | VGRGGGIFDY | nd nd nd | 0/9 |
| GFTFDDYAMH | GISWNSGSIYYADSVS | VGRGGGYFDY | 4.42 nd nd | 4/9 (4.38) |
| GFTFDDYAMH | GISWNSGSAGYADSVK | VGEGGGYLDY | nd nd nd | 0/9 |
| GFTFDDYAMH | GISWNSGSIGYADSVF | VGRGGFYFPY | nd nd nd | 1/9 (3.38) |
| GFTFDDYAMH | GISWNSGSIGEADSVC | VGRGGGYFDI | 5.31 nd nd | 2/9 (4.99) |

The last 7 entries again:

| CDR-H1 | CDR-H2 | CDR-H3 | replicates, log10 nM | control signals |
|---|---|---|---|---|
| GFTFDDYAMH | GISWNSGSIGYADSVK | TGRGGGYFDY | nd nd nd | 0/9 |
| GFTFCDYAMH | GISWNSGSIGYADHVK | VGRGYGYFDY | 4.50 6.14 4.96 | 4/9 (4.25) |
| GDTFDDYAMH | GISWNSGSITYADSVK | VGRGGGIFDY | nd nd nd | 0/9 |
| GFTFDDYAMH | GISWNSGSIYYADSVS | VGRGGGYFDY | 4.42 nd nd | 4/9 (4.38) |
| GFTFDDYAMH | GISWNSGSAGYADSVK | VGEGGGYLDY | nd nd nd | 0/9 |
| GFTFDDYAMH | GISWNSGSIGYADSVF | VGRGGFYFPY | nd nd nd | 1/9 (3.38) |
| GFTFDDYAMH | GISWNSGSIGEADSVC | VGRGGGYFDI | 5.31 nd nd | 2/9 (4.99) |

In this assay the parent's reference entry averaged 1.86; its copy inside this library read 0.88.